Data from patent publication EP4837578A1, “SAFER DRUG AND USE THEREOF” (dated 2026).

Tests used:
[1] = test system: human induced pluripotent stem cell-derived cardiomyocytes (hiPSC-CMs); assay: Multi-electrode Array (MEA) field potential recording of hiPSC-CMs; settings: for toxicity of ondansetron: ondansetron 120 µg/L
Text: A stem cell cardiac electrophysiology research and development platform was used to screen drug combination regimens. The basic procedure was as follows: • (1) Human induced pluripotent stem cell-derived cardiomyocytes were thawed and seeded onto Multi-electrode Array (MEA) cell culture plates, with the cell culture medium changed daily. • (2) After approximately 4 to 8 days, recording of cardiac cell electrical signals began. Baseline cardiac cell electrical signals prior to drug administration, as well as cardiac cell electrical signal data following the addition of drugs such as ondansetron and diltiazem, were recorded. • (3) Differences in electrical signals under the influence of different drugs were compared, the data were analyzed, and graphs for comparison were generated.
Human induced pluripotent stem cell-derived cardiomyocytes (hiPSC-CMs) were thawed and seeded onto a Multiple-electrode Array (MEA) plate pre-coated with hiPSC-CM coating solution. hiPSC-CM maintenance medium was used for medium changes, and thereafter the cell culture medium was changed daily until the completion of drug administration and recording. After 4-8 days of culture on the MEA plate, recording of cardiac electrical signals could begin. Baseline cardiac cell electrical signals were recorded prior to drug administration. Following the addition of ondansetron, cardiac electrical signal data were recorded. Subsequently, drugs such as diltiazem were added, and cardiac cell electrical signals were recorded. The recorded electrical signal data were analyzed, exported to Excel, and then plotted and analyzed using GraphPad.

[2] = influence factor tests (light protection, high temperature, light exposure)
Text: Herein, API-1 is ondansetron, and API-2 is diltiazem. […] Under high temperature and light protection conditions, API-1 has essentially no significant effect on the stability of API-2.

[3] = stability test of the laboratory-optimized formulation at 2-8°C and 25°C
Text: As of July 19, 2022, 83,849 people had reported experiencing side effects while taking ondansetron, of whom 3,448 (4.11%) died. […] FPDc (the rate corrected field potential duration) represents the heart rate-corrected field potential duration and is equivalent to the QT interval in an electrocardiogram. […] Herein, API-1 is ondansetron, and API-2 is diltiazem. […] Under high temperature and light protection conditions, API-1 has essentially no significant effect on the stability of API-2. […] API-2 (diltiazem) remains relatively stable when stored at 2-8°C; however, under 25°C conditions, it primarily generates a degradation impurity, API-2F.

[4] = as of July 19, 2022; cited from earlier work

Cc1nccn1CC1CCc2c(c3ccccc3n2C)C1=O (stereo not drawn)
FPDc (the rate corrected field potential duration) ([1]; ondansetron alone 120 µg/L, compared to the control group): significantly increased
stability of API-1 ([2]; high temperature and light protection): relatively stable
stability of API-1 ([2]; light exposure): unstable
stability (related substances) ([3]; 2-8°C and 25°C): no significant changes
people reported experiencing side effects while taking ondansetron [4]: 83,849
people who died among those reporting side effects [4]: 3,448
share who died among those reporting side effects [4]: 4.11%

CC(C)NCC(O)COc1ccc(CC(N)=O)cc1 (stereo not drawn)
toxicity of ondansetron ([1]; atenolol 4.79 mg/L): could not eliminate

COc1ccc([C@@H]2Sc3ccccc3N(CCN(C)C)C(=O)[C@@H]2OC(C)=O)cc1
ondansetron-induced cardiac electrical activity disorder in cardiomyocytes ([1]; diltiazem 8.12 µg/L added to ondansetron 120 µg/L): can effectively reverse
stability of API-2 ([2]; high temperature): unstable
stability of API-2 ([2]; light exposure): unstable
stability of API-2 ([2]; light protection): stable
stability ([3]; 25°C): primarily generates a degradation impurity, API-2F
stability ([3]; stored at 2-8°C): remains relatively stable

CC1=NS(=O)(=O)c2cc(Cl)ccc2N1
toxicity of ondansetron ([1]; diazoxide 6.92 mg/L): could not eliminate
